{
  "source": "patent US20240158368A1",
  "about": "“Pyrrolidine Main Protease Inhibitors as Antiviral Agents” (AbbVie Inc., priority 2022, published 2024)",
  "system": "A172, PC3, HepG2 and IPSC-derived cardiomyocytes",
  "conditions": "up to 300 μM, with and without valspodar, 4 cell types",
  "data": [
    {"molecule": "C=C(C)[C@H]1Cc2c(ccc3c2O[C@@H]2COc4cc(OC)c(OC)cc4[C@@H]2C3=O)O1", "note": "[rotenone]", "values": [
      {"measurement": "Mitochondrial toxicity (cytotoxicity in glucose- vs galactose-based media)", "value": "pronounced increase in cytotoxicity in galactose-based media"}
    ]}
  ]
}
